The values that follow come from patent US20230372302A1 (priority 2019, published 2023).

Sequences of proteins named here, by UniProt entry; tags and fusion partners are left off.
UniProt P35348, whole entry: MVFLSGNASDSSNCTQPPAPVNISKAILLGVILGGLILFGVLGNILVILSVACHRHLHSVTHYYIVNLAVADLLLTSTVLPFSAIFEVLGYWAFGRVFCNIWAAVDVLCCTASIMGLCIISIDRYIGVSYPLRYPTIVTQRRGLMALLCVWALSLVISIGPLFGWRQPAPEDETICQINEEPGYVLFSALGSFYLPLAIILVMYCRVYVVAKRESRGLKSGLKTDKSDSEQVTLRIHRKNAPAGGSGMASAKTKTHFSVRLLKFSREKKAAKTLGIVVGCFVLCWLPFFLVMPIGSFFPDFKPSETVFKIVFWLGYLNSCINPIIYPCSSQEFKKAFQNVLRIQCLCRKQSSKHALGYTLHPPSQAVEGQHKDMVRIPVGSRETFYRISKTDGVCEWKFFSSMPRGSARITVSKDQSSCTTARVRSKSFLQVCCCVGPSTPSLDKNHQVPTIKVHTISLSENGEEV
UniProt P35368, whole entry: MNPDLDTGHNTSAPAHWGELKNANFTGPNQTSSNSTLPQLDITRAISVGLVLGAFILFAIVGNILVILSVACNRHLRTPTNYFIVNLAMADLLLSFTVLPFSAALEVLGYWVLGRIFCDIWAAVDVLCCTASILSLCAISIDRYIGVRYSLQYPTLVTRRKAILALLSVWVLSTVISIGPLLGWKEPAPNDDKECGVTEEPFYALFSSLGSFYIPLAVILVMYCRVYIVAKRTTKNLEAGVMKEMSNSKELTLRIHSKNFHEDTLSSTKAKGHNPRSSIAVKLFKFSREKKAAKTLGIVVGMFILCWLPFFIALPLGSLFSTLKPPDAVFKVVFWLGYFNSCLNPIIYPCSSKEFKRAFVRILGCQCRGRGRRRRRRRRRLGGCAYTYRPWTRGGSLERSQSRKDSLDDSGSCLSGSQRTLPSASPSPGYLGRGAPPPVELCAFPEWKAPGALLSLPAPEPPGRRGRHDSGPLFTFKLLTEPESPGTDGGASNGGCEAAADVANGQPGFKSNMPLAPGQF
UniProt P25100, whole entry: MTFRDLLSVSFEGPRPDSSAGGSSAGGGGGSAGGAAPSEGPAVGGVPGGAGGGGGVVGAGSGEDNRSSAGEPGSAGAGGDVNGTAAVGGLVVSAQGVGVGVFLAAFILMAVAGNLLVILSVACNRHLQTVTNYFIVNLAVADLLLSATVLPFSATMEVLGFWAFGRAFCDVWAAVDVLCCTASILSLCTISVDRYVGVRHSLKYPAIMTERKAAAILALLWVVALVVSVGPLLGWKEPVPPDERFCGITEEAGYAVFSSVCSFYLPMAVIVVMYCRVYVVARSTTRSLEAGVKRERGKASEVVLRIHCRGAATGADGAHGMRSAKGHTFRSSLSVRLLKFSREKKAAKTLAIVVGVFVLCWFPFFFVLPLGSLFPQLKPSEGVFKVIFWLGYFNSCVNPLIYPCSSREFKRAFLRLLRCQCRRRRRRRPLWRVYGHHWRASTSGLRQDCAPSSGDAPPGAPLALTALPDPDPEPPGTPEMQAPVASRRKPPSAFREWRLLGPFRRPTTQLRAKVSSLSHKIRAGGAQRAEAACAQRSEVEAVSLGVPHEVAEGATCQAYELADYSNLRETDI

Each structure is given as a SMILES string. This is a selection: effects in other tests are not listed, and their absence says nothing.

The target in assay [1] is recombinant human alpha 1A adrenergic receptor (ADR1A) (Homo sapiens, UniProt P35348). Nature of the assay: Radioligand binding, alpha 1A adrenergic receptor (Adr1A). To be noted: FIG. 2A-2B.
Assay [2] deals with alpha 1 subtypes (1A, 1B, 1D). Nature of the assay: Assays of function, antagonism at alpha 1 subtypes. In kind it is cell-based, human. To be noted: result in words.
In assay [3] the target is recombinant human alpha 1B adrenergic receptor (ADR1B) (Homo sapiens, UniProt P35368). Nature of the assay: Radioligand binding, alpha 1B adrenergic receptor (Adr1B).
The target of assay [4] is recombinant human alpha 1D adrenergic receptor (ADR1D) (Homo sapiens, UniProt P25100). Nature of the assay: Radioligand binding, alpha 1D adrenergic receptor (Adr1D).

For the compound `CCC(=O)N(c1ccccc1)C1CCN(CCc2ccccc2)CC1`, the “binding at alpha 1A (bind all alpha 1 subtypes)” value in assay [1] was “bind all alpha 1 subtypes”. Moreover, the “act as antagonists at all alpha 1 subtypes” value in assay [2] is listed as “act as antagonists”. Further, in assay [3], the “greater affinity at the 1B compared to NE” value turned out to be 2 fold. Besides, the “binding at alpha 1B (bind all alpha 1 subtypes)” value in assay [3] (FIG. 3A-3B) was “bind all alpha 1 subtypes”. Besides, the “binding affinity (BA) at 1B compared with NE” value in assay [3] (comparison in words) is listed as “greater binding affinity”. In addition, the “less binding affinity for the A-1D subtype than for A-1A and A-1B” value in assay [4] turned out to be 5 fold. The “binding at alpha 1D (bind all alpha 1 subtypes)” value in assay [4] (FIG. 4A-4B) is reported as “bind all alpha 1 subtypes”.
